{
  "source": "paper PMC7700664",
  "about": "“In Vitro and Ex Vivo Evaluation of Penetratin as a Non-invasive Permeation Enhancer in the Penetration of Salmon Calcitonin through TR146 Buccal Cells and Porcine Buccal Tissues” (Pharmaceuticals, 2020)",
  "origin": "cited, not measured here",
  "test_system": "TR146 cell layers",
  "conditions": "cited from earlier work",
  "procedure": "TEER value represents the integrity and the function of tight junctions between cell layers. If a tight junction of cell layer loosen, membrane integrity also diminishes and penetration to the paracellular route increases. The maximum TEER value of the TR146 cell layer incubated for 30 days in the in vitro cell permeation study was 71.30 Ω·cm^2 [39, 40].",
  "data": [
    {"smiles": "CC[C@H](C)[C@H](NC(=O)[C@H](CCCCN)NC(=O)[C@@H](NC(=O)[C@H](CCC(N)=O)NC(=O)[C@@H](N)CCCNC(=N)N)[C@@H](C)CC)C(=O)N[C@@H](Cc1c[nH]c2ccccc12)C(=O)N[C@@H](Cc1ccccc1)C(=O)N[C@@H](CCC(N)=O)C(=O)N[C@@H](CC(N)=O)C(=O)N[C@@H](CCCNC(=N)N)C(=O)N[C@@H](CCCNC(=N)N)C(=O)N[C@@H](CCSC)C(=O)N[C@@H](CCCCN)C(=O)N[C@@H](Cc1c[nH]c2ccccc12)C(=O)N[C@@H](CCCCN)C(=O)N[C@@H](CCCCN)C(=O)O", "note": "[Penetratin]", "values": [
      {"measurement": "change of TEER value on treatment with Penetratin", "value": "did not differ significantly"}
    ]}
  ]
}
